Measurements from ChEMBL document CHEMBL1137375, “Design, synthesis, and biological evaluation of new 1,8-naphthyridin-4(1H)-on-3-carboxamide and quinolin-4(1H)-on-3-carboxamide derivatives as CB2 selective agonists” (J Med Chem, 2006).

Amino acid sequences for entries named in this document (tags omitted). A change or cut given only in a name is not applied to a line headed by its entry.
UniProt P47746, whole entry: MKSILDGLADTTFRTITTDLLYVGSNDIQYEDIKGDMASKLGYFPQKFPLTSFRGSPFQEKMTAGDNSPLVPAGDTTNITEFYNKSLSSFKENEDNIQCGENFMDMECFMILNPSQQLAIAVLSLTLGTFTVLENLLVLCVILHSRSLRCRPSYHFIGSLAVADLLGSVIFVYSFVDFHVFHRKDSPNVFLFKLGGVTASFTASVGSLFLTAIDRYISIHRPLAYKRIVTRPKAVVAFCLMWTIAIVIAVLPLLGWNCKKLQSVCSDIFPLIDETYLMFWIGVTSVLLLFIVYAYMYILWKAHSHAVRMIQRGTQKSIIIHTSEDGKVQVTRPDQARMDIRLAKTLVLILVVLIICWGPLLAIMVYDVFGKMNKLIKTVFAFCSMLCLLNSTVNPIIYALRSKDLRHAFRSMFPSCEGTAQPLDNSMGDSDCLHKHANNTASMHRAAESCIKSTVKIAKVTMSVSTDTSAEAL
UniProt P47936: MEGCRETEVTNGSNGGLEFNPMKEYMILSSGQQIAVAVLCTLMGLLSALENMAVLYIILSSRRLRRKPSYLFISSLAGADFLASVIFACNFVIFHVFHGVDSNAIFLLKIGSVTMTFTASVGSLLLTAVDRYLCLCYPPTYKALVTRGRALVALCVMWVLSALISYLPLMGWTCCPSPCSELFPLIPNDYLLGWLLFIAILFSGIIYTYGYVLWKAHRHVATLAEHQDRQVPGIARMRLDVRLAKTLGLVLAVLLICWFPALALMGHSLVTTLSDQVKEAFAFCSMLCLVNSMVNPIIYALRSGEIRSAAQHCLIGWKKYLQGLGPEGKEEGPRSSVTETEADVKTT

Legend:
[1] = molecular target: Cannabinoid receptor 1 (Mus musculus, UniProt P47746); assay: Displacement of [3H]CP-55940 from CB1 receptor in DBA/J2 mouse brain; type: tissue-based
Outline: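 Membranes (40-60 µg protein) from mouse brain minus cerebellum (CB1) or spleen (CB2), incubated 1 h at 30 °C with 0.5 nM [3H]CP-55,940 in TME buffer (pH 7.4) with 5 mg/mL BSA. GF/C filtration, scintillation counting. IC50 by nonlinear fit, converted to Ki by Cheng-Prusoff; at least three membrane preparations.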

[2] = molecular target: Cannabinoid receptor (Mus musculus) (UniProt P47746+P47936); assay: Selectivity for DBA/J2 mouse CB2 receptor over CB1 receptor; type: protein assay

Q: For `O=C(NC1CCCCC1)c1cn(Cc2ccccc2F)c2nc(Cl)ccc2c1=O`, which Ki [1] is on record?
A: 0.171 µM

Q: What about the Ratio Ki [2] of the same compound?
A: 9.5
